# Laboratory results published in patent US20230285371A1 (THE SECOND XIANGYA HOSPITAL OF CENTRAL SOUTH UNIVERSITY, priority 2020, published 2023).
# Test system: Naive CD4+ T cells
# Assay: Cytotoxicity to T cells: cell count after 48 hours
# Type: cell-based, C57BL/6J mice
# Conditions: increasing concentrations
substance,measurement,value
Sorafenib,cytotoxicity to Naive CD4+ T cells,not cytotoxic
